Data on two molecules can be found in patent US12173004B2, “Pharmaceutical compositions comprising heterocycle fused gamma carboline prodrugs” (INTRA-CELLULAR THERAPIES, INC., priority 2017, dated 2024).

Where two headings read alike, the source gives them in different places.

One experiment addresses mu-opiate receptors (Mus musculus (Mouse), UniProt P42866). In words: Mouse Tail Flick Assay: antagonism of morphine-induced analgesia. (In general: Thermal pain tests record how soon the animal reacts.)
Experiment [1] concerns Male CD-1 mice. The experiment in a line: Mouse Tail Flick Assay: time course for analgesia. The experiment is classed as in vivo. The conditions noted are these: 1 mg/kg s.c.
The subject of experiment [2] is Male CD-1 mice.
Experiment [3] deals with NOP (Nociceptin Receptor) (Homo sapiens (Human), UniProt P41146). The experiment in a line: Receptor binding profile: NOP.
The target of the next experiment is Delta opioid (Homo sapiens (Human), UniProt P41143). The experiment in a line: Receptor binding profile: Delta opioid.
Experiment [4] concerns Male CD-1 mice. The experiment in a line: Mouse Tail Flick Assay: analgesia after 14-day chronic administration.

As for `O=C1CN2c3c(cccc3[C@@H]3CN(CCCC(=O)c4ccc(F)cc4)CC[C@@H]32)N1` [Example 1], the mean latency at mu-opiate receptors (Group 4 Cmpd/Mor: 0.1 mg/kg compound p.o. 60 min + 5 mg/kg morphine 30 min before test) was 8.870 s; on mu-opiate receptors (Group 5 Cmpd/Mor: 0.3 mg/kg compound p.o. 60 min + 5 mg/kg morphine 30 min before test), 6.907 s; at mu-opiate receptors (Group 6 Cmpd/Mor: 1 mg/kg compound p.o. 60 min + 5 mg/kg morphine 30 min before test), 6.240 s.
For `O=C1CN2c3c(cccc3[C@@H]3CN(CCCOc4ccc(F)cc4)CC[C@@H]32)N1` [Example 2, (6bR,10aS)-8-(3-(4-fluorophenoxy)propyl)-6b,7,8,9,10,10a-hexahydro-1H-pyrido[3′,4′:4,5]pyrrolo[1,2,3-de]quinoxalin-2(3H)-one], the “TF Latency” value came out at 5.77 s in the experiment on Male CD-1 mice [1] (30 min prior); 2.42 s in the experiment with Male CD-1 mice [1] (2 h prior); 1.48 s with Male CD-1 mice [1] (4 h prior); 1.36 s in the experiment on Male CD-1 mice [1] (6 h prior (text: 8 hours)); 1.29 s with Male CD-1 mice [1] (24 h prior). For the same molecule, the mean latency with Male CD-1 mice [2] (1 mg/kg 30 min before test, naloxone 3 mg/kg i.p. pre-treatment) was found to be 1.3 s; in the experiment with Male CD-1 mice [2] (1 mg/kg 30 min before test, saline pre-treatment) it was 4.1 s; with Male CD-1 mice [2] (3 mg/kg 30 min before test, naloxone 3 mg/kg i.p. pre-treatment), 1.7 s; in the experiment with Male CD-1 mice [2] (3 mg/kg 30 min before test, saline pre-treatment) it was 7.4 s; with Male CD-1 mice [2] (10 mg/kg 30 min before test, saline pre-treatment), 9.8 s. In addition, the “Ki (nM) or maximum inhibition, NOP” value in experiment [3] is recorded as “No inhibition”. In addition, on Delta opioid, the “Ki (nM) or maximum inhibition, Delta opioid” value is “No inhibition”. Besides, the “Latency” value in the experiment on Male CD-1 mice [4] (chronic 14-day 0.3 mg/kg, acute 0.01 mg/kg s.c.) was determined as 1.66 s; in the experiment on Male CD-1 mice [4] (chronic 14-day 0.3 mg/kg, acute 0.03 mg/kg s.c.), 1.30 s; in the experiment on Male CD-1 mice [4] (chronic 14-day 0.3 mg/kg, acute 0.1 mg/kg s.c.), 2.60 s; with Male CD-1 mice [4] (chronic 14-day 0.3 mg/kg, acute 0.3 mg/kg s.c.), 3.93 s; with Male CD-1 mice [4] (chronic 14-day 0.3 mg/kg, acute 1.0 mg/kg s.c.) it was 5.64 s; in the experiment with Male CD-1 mice [4] (chronic 14-day 0.3 mg/kg, acute vehicle), 0.893 s. The “Latency” value in the experiment with Male CD-1 mice [4] (chronic 14-day 3.0 mg/kg, acute 0.01 mg/kg s.c.) worked out at 1.64 s; with Male CD-1 mice [4] (chronic 14-day 3.0 mg/kg, acute 0.03 mg/kg s.c.), 1.80 s; with Male CD-1 mice [4] (chronic 14-day 3.0 mg/kg, acute 0.1 mg/kg s.c.), 3.94 s; in the experiment with Male CD-1 mice [4] (chronic 14-day 3.0 mg/kg, acute 0.3 mg/kg s.c.) it was 4.84 s; with Male CD-1 mice [4] (chronic 14-day 3.0 mg/kg, acute 1.0 mg/kg s.c.), 7.94 s; with Male CD-1 mice [4] (chronic 14-day 3.0 mg/kg, acute vehicle) it was 1.04 s. The “Latency” value in the experiment on Male CD-1 mice [4] (chronic 14-day vehicle, acute 0.01 mg/kg s.c.) was 1.87 s; in the experiment on Male CD-1 mice [4] (chronic 14-day vehicle, acute 0.03 mg/kg s.c.), 2.50 s; with Male CD-1 mice [4] (chronic 14-day vehicle, acute 0.1 mg/kg s.c.), 5.26 s; with Male CD-1 mice [4] (chronic 14-day vehicle, acute 0.3 mg/kg s.c.), 8.26 s; with Male CD-1 mice [4] (chronic 14-day vehicle, acute 1.0 mg/kg s.c.) it was 9.74 s.
